The results in this text go back to ChEMBL document CHEMBL2163296 (J Med Chem, 2012).

Protein sequences, listed by entry. Tags and fused reporters are not part of them.
UniProt P08908, whole entry: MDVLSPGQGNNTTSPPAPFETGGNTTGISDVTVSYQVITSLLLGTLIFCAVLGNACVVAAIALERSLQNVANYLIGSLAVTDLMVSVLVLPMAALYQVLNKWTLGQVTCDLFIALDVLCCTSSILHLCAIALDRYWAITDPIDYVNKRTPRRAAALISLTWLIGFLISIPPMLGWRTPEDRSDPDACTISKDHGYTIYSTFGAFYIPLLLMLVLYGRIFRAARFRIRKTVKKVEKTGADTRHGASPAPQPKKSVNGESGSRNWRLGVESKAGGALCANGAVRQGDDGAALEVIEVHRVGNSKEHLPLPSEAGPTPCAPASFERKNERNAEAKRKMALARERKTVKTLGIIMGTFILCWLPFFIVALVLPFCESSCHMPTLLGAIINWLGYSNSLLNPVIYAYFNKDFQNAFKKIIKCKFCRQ

The test concerns the target 5-hydroxytryptamine receptor 1A (Homo sapiens, UniProt P08908).

`CNC(=O)c1cc(Oc2ccc(NC(=O)Nc3ccc(Cl)c(C(F)(F)F)c3)cc2)ccn1` [SORAFENIB] registered a Ki of 1180 nM.

By Ki is commonly meant the dissociation constant of the complex between target and ligand, obtained from inhibition or displacement.
